Experimental data as given in patent US20060093617A1.

Experiments:
HLA-A0101 (human) = assay: competition with 125I-labelled probe peptide, purified HLA
HLA-A*0101 (human) = assay: competition with 125I-labelled probe peptide on purified HLA-A*0101

B1: … (peptide)
peptide: ATDALMTGYT
modifications: not checked
Q: How did the Ki (HLA-A0101 (human)) turn out when B1 was run?
A: Its Ki is 227 nM.

Q: And the IC50 (HLA-A*0101 (human))?
A: The IC50 was 227 nM.

B2: … (peptide)
peptide: VIDTLTCGF
modifications: not checked
Q: For B2, which Ki (HLA-A0101 (human)) is on record?
A: The Ki was 1020 nM.

B3: … (peptide)
peptide: LTCGFADLM
modifications: not checked
Q: Which Ki (HLA-A0101 (human)) does the source give for B3 here?
A: Its Ki is 759 nM.
